From US8618290B2 (dated 2013)

Target: human HSP90a (recombinant N-terminal nucleotide binding domain) (Homo sapiens (Human), UniProt P07900)
Assay: Competition fluorescence polarization binding assay with TSD-FP probe
Conditions: read-out: Binding Affinity IC50; method of Example A-1; incubation time not stated

| Structure (SMILES) | IC50 [nM] |
| --- | --- |
| COc1cccc(-c2cc(F)ccc2[C@H]2Cc3nc(N)nc(C)c3/C(=N/OC[C@H]3COCCO3)N2)n1 [Compound 40, (R,Z)-2-Amino-7-(4-fluoro-2-(6-methoxypyridin-2-yl)phenyl)-4-methyl-7,8-dihydropyrido[4,3-d]pyrimidin-5(6H)-one O—((R)-1,4-dioxan-2-yl)methyl oxime] | 10 |
| COc1cccc(-c2cc(F)ccc2[C@H]2Cc3nc(N)nc(C)c3/C(=N/OCCC[C@H](O)CO)N2)n1 [Compound 75, (R,Z)-2-amino-7-(4-fluoro-2-(6-methoxypyridin-2-yl)phenyl)-4-methyl-7,8-dihydropyridol[4,3-d]pyrimidin-5(6H)-one O—(S)-4,5-dihydroxypentyl oxime] | 10 |
